Literature values, collected in US20250040547A1, “COMPOSITION CONTAINING A MACROLIDE INSECTICIDAL COMPOUND AND POLYCATIONIC RHEOLOGY MODIFIER” (priority 2021, published 2025).

For Emamectin benzoate, the water solubility is given as 24 mg/L-1.
